Measurements: BindingDB's records for PubMed 8632342 (Eli Lilly, 1996)

Amino acid sequences for entries named in this document (tags omitted). A change or cut given only in a name is not applied to a line headed by its entry.
UniProt P30994, whole entry: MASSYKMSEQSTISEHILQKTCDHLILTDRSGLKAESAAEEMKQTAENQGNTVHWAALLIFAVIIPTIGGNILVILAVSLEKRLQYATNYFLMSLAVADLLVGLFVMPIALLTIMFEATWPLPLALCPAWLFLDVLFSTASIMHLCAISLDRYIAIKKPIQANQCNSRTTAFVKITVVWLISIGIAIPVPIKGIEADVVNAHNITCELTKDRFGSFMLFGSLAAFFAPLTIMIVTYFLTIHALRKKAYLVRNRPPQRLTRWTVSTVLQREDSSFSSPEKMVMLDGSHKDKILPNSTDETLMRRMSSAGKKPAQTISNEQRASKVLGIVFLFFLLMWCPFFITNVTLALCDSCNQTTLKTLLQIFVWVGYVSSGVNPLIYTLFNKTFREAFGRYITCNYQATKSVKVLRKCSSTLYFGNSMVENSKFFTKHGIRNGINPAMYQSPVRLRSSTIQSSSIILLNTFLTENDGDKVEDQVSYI
UniProt P28335: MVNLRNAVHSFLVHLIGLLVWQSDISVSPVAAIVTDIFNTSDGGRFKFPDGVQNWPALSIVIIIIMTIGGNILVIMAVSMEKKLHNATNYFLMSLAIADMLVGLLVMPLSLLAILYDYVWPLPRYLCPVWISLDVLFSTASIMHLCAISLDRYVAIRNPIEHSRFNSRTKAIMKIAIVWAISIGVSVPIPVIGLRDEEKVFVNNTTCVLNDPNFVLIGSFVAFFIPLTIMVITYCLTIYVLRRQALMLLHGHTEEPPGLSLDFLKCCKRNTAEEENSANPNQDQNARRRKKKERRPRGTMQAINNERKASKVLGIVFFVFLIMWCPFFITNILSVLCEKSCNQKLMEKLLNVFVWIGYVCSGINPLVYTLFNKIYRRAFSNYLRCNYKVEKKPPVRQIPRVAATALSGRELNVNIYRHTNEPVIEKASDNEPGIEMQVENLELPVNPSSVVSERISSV
UniProt P28223, whole entry: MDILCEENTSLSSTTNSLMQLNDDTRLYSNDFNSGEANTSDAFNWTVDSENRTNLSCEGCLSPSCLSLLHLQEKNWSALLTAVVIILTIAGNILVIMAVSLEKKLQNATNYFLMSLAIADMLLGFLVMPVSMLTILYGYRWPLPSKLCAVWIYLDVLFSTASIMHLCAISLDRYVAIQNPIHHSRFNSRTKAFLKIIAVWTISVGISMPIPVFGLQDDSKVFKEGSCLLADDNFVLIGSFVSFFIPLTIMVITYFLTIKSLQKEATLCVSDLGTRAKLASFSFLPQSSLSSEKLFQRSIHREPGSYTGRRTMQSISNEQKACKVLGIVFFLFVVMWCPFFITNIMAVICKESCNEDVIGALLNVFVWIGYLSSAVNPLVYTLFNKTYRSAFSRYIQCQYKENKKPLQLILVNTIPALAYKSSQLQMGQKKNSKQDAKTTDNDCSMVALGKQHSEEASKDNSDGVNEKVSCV

Tests used:
[1] = target: 5-hydroxytryptamine receptor 2B (Rattus norvegicus, UniProt P30994)
[2] = target: 5-hydroxytryptamine receptor 2C (Homo sapiens, UniProt P28335)
[3] = target: 5-hydroxytryptamine receptor 2A (Homo sapiens, UniProt P28223)

**Q.** With O=C(CCCN1CCC2(CC1)C(=O)NCN2c1ccccc1)c1ccc(F)cc1 [8-[4-(4-fluorophenyl)-4-oxidanylidene-butyl]-1-phenyl-1,3,8-triazaspiro[4.5]decan-4-one] as the compound, how does the Ki [1] read?
**A.** 3000 nM

**Q.** COC(=O)[C@@H]1[C@H]2C[C@H]3c4[nH]c5ccccc5c4CCN3C[C@@H]2CC[C@@H]1O [yohimbic acid methyl ester] was tested. Which Ki [2] did it give?
**A.** 1690 nM

**Q.** How did the Ki [3] turn out when CN1C[C@H](C(=O)NC2CCCCC2)C[C@@H]2c3cccc4[nH]cc(c34)C[C@H]21 [LY-193525] was run?
**A.** 0.9 nM
